In patent publication US9051270B2, “Pyridone amides as modulators of sodium channels” (Vertex Pharmaceuticals Incorporated, priority 2013, dated 2015) one finds IC50 data, which are given here for one substance.

Amino acid sequences for entries named in this document (tags omitted).
UniProt Q9Y5Y9, whole entry: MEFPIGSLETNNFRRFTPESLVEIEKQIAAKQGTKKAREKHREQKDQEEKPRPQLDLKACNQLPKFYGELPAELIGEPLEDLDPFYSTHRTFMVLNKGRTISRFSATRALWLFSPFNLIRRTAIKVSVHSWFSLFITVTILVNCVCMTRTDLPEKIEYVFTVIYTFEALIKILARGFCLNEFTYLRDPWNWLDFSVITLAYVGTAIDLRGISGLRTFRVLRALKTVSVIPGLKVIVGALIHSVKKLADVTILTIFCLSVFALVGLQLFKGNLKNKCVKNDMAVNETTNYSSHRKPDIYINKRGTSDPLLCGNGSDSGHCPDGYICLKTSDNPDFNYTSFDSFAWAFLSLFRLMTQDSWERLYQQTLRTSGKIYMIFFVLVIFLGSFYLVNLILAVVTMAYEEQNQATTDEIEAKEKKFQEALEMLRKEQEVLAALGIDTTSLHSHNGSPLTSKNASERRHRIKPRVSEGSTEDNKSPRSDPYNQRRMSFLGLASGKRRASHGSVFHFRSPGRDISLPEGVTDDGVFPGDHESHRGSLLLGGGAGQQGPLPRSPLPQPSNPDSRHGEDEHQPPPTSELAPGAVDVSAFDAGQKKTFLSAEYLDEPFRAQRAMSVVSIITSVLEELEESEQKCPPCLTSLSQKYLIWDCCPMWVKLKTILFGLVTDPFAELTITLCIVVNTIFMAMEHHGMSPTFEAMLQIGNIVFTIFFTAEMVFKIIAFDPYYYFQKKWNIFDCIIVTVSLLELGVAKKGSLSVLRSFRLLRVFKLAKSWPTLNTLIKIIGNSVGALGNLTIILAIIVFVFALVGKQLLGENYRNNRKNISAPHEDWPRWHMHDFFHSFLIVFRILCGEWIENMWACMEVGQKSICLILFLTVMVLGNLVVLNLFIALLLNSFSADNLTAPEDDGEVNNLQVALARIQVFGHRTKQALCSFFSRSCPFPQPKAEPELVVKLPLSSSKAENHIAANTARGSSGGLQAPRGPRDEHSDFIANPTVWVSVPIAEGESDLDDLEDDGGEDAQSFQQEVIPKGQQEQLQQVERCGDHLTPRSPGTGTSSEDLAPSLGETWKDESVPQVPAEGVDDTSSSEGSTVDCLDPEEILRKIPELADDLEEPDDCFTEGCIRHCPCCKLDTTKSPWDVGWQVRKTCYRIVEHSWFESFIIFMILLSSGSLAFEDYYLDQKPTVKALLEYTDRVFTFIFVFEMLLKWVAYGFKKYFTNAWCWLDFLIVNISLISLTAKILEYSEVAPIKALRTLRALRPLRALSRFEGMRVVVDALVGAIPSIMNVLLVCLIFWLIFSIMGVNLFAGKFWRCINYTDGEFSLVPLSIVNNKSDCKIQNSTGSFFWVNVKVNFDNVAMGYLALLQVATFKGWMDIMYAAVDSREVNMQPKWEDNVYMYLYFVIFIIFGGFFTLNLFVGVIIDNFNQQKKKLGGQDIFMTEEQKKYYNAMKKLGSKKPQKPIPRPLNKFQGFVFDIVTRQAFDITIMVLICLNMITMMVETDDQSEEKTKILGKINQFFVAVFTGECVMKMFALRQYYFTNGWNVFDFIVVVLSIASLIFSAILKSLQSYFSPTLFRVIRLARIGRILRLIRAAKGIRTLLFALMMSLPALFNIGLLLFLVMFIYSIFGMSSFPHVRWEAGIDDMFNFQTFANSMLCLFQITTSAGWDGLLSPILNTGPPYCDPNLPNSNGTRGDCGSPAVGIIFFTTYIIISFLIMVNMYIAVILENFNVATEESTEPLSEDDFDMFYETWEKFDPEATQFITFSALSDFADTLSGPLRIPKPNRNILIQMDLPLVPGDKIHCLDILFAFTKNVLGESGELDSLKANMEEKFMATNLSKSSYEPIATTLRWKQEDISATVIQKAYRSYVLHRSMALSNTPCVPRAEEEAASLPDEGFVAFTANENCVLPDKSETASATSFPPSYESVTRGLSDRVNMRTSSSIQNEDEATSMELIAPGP

The target in this assay is human Nav1.8 (Homo sapiens (Human), UniProt Q9Y5Y9). Description: E-VIPR optical membrane potential assay with electrical stimulation. It counts as cell-based. Particulars: HEK cells expressing human Nav1.8. An excerpt: Sodium channels are voltage-dependent proteins that can be activated by inducing membrane voltage changes by applying electric fields. […] The instrument comprises a microtiter plate handler, an optical system for exciting the coumarin dye while simultaneously recording the coumarin and oxonol emissions, a waveform generator, a current- or voltage-controlled amplifier, and a device for inserting electrodes in well. Under integrated computer control, this instrument passes user-programmed electrical stimulus protocols to cells within the wells of the microtiter plate.
24 hours before the assay on E-VIPR, HEK cells expressing human Nav1.8 were seeded in 384-well poly-lysine coated plates at 15,000-20,000 cells per well. […]
7) Read Plate on E-VIPR. […]
Data was analyzed and reported as normalized ratios of emission intensities measured in the 460 nm and 580 nm channels. […]
The data was further reduced by calculating the initial (Ri) and final (Rf) ratios. […] The response to the stimulus R=Rf/Ri was then calculated and reported as a function of time.
Control responses were obtained by performing assays in the presence of a compound with the desired properties (positive control), such as tetracaine, and in the absence of pharmacological agents (negative control). Responses to the negative (N) and positive (P) controls were calculated as above. […]

As for “2-(4-fluoro-2-methylphenoxy)-N-(2-oxo-1,2-dihydropyridin-4-yl)-5-(trifluoromethyl)benzamide [Compound 106]”, the IC50 turned out to be 99 nM.
